# Values quoted from earlier work, collected in patent US20230094545A1, “S1P RECEPTOR MODULATORS” (AKAAL PHARMA PTY LTD, priority 2020, published 2023).
# Sequences of proteins named here, by UniProt entry; tags and fusion partners are left off.
# UniProt P21453, whole entry: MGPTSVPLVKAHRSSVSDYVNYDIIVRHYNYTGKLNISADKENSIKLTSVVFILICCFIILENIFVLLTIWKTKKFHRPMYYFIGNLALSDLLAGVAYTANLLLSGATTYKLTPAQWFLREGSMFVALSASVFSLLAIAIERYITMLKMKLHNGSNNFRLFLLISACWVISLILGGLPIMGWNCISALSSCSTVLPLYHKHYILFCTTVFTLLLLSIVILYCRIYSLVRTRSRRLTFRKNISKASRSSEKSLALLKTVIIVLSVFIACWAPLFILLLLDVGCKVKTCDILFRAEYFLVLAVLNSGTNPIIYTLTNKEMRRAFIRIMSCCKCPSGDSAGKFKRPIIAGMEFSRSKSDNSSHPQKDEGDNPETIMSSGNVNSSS
# Target: S1P1 receptor (Homo sapiens, UniProt P21453)
# Settings: Lucas et al; read-out: EC50 at S1P1 receptor in a GTPγS assay; cited from earlier work
smiles,measurement,value
CCCCCCCCc1ccc(CCC(N)(CO)CO)cc1 [FTY720],EC50,2 nM
